Tests used:
CHO cells [1] = settings: 5 L BR; 2.31 μM versus 0.17 μM selenium (FIG. 11A)
CHO cells [2] = assay: cell viability in SF culture (trypan blue exclusion); assay type: cell-based, Chinese hamster; settings: experiment 2; selenium above 3 μM (FIG. 7)
Method: Experiments (using different illustrative glycoproteins) were performed in shake flask (SF) systems, where […] SFs with a final volume of 125 ml were used.
The experiment was performed in 500 ml SF with a final volume of 125 ml. After 14 days of fed batch bioprocess, harvests were collected, centrifuged, sterile filtered through a PES membrane and immediately subjected to a single step AC purification and a subsequent analysis of C-terminal α-amidation by […].

In the case of `O=[Se]([O-])[O-].[Na+].[Na+]` [selenium, sodium selenite], the “toxicity to the cells (growth, viability)” value (CHO cells [1]) is reported as “not toxic” and the “toxicity to the cell culture” value (CHO cells [2]) is reported as “toxic”.
